# Source: paper PMC7656562 (Journal of medicinal chemistry, 2019)
# Where two headings read alike, the source gives them in different places.
# Tests used:
# [1] = mouse, 0.3 mg/kg PO
# [2] = rat, 1 mg/kg PO
smiles,measurement,setting,value
"O=C(Nc1ccc(OC(F)F)nc1)NC1CCN(c2ncnc3c2nc(-c2ccccc2Cl)n3-c2ccc(Cl)cc2)CC1 [Compound 38, 3-{1-[8-(2-Chlorophenyl)-9-(4-chlorophenyl)-9H-purin-6-yl]-piperidin-4-yl}-1-[6-(difluoromethoxy)pyridin-3-yl]urea]",time of plasma max. conc.,[1],2 h
same,time of plasma max. conc.,[2],2 h
